Data from patent US8652473B2, “Antibodies to EGF receptor epitope peptides and uses thereof” (Ludwig Institute for Cancer Research Ltd., priority 2004, dated 2014).

Assays:
Set-up in all cases: species or system human
[1] = system: mAb 806 binding to immobilized 287-302 EGFR peptide; assay: BIAcore, soluble EGFR peptides blocking mAb 806 binding; conditions: mAb […] 500 nM; soluble peptide 5 and 10 μM; amine coupling
Method: FIG. 5A-5B. Analysis of mAb 806 binding to peptides by BIAcore. A, The 287-302 EGFR peptide was immobilized on the surface by thiol coupling and the mAb 806 antibody passed over at increasing concentrations (31.25, 62.5, 125, 250, 500 and 1000 nM). Binding affinity was then determined by Scatchard analysis (insert). B, The 287-302 EGFR peptide was immobilized on the surface by amine coupling and the mAb 806 antibody at a concentration of 500 nM was passed over the surface in the presence of the 287-302 (upper panel), 287-298 (middle panel) or 287-301 (lower panel) EGFR peptides (5 and 10 μM).
A BIAcore 3000 was used for all experiments. The peptides containing the putative mAb 806 epitope were immobilised on a CM5 sensor chip using amine or thiol-disulphide exchange coupling at a flow rate of 5 μl/min (34). The 806 antibody was passed over the sensor surface at a flow rate of 5 μl/min at 25° C. The surfaces were generated between runs by injecting 10 mM HCl at a flow rate of 10 μl/min.

[2] = system: mAb 806 binding to immobilized 1-501 EGFR fragment; assay: ELISA, peptide inhibition of mAb […] binding to 1-501 EGFR; conditions: peptide in solution, increasing concentrations
[3] = system: mAb 806 binding to the 1-501 and 274-501 EGFR fragments; assay: Peptide competition of mAb 806 immunoblotting; conditions: 100-fold molar excess of competing peptide
[4] = system: mAb 806 binding to immobilized 501-Fc; assay: ELISA, peptide inhibition of mAb 806 binding to 501-Fc; conditions: increasing concentrations of peptide

| inhibition of mAb […] binding to immobilized 1-501 fragment (ELISA) [2] | inhibition of mAb […] binding in immunoblot [3] | Substance | inhibition of mAb […] binding to immobilized 287-302 EGFR peptide (BIAcore) [1] | inhibition of mAb […] binding to 501-Fc (ELISA) [4] |
| --- | --- | --- | --- | --- |
| able to inhibit | able to inhibit | CGADSYEMEEDGVRKC (epitope peptide) [287-302 EGFR peptide] | inhibited mAb 806 binding in a dose dependent manner | – |
| – | – | CGADSYEMEEDGVRKC [Oxidized 287-302 EGFR peptide, prepared by overnight aerial oxidation in alkaline conditions] | – | inhibited binding of mAb 806 to 501-Fc in a dose dependent manner |
| – | – | S-carboxymethylated 287-302 EGFR peptide: 287-302 peptide reacted with dithiothreitol followed by iodoacetamide (CGADSYEMEEDGVRKC) | – | unable to inhibit |
